Legend:
[1] = test system: SCCHN cell line PCI-30; assay: Cell proliferation assay (WST-8); assay type: cell-based, human; conditions: 10 nM kinase inhibitors, 10 μg/mL antibodies
Method: (§1) Cell proliferation was determined using an ELISA plate reader and the WST-8 kit (Dojindo technologies) following the manufacturer's instructions and using the formula: % survival rate=(Sample-Background)/(Negative control-Background). Lapatinib (MSKCC pharmacy) was ground using a mortar and pestle and suspended in DMSO as previously described. To determine statistical significance, the results were analyzed using one-way ANOVA using Prism 6.0.
(§2) For cell proliferation assays, 5,000 tumor cells were plated using RPMI-1640 supplemented with 10% FBS in a 96 well plate for 36 hours before being treated with lapatinib or the antibodies at the specified concentrations. Cell proliferation was determined using an ELISA plate reader and the WST-8 kit (Dojindo technologies) following the manufacturer's instructions and using the formula: % survival rate=(Sample-Background)/(Negative control-Background). Lapatinib (Memorial Sloan Kettering Cancer Center pharmacy) was ground using a mortar and pestle and suspended in DMSO as previously described (Chen et al., 2012, Molecular cancer therapeutics 11:660-669). To determine statistical significance, the results were analyzed using one-way ANOVA using Prism 6.0.
(§3) For tumor cell proliferation, 5,000 tumor cells were plated using RPMI-1640 supplemented with 10%, fetal bovine serum (“FBS”) in a 96 well plate for 36 hours before being treated with—kinase inhibitors or the antibodies at the specified concentration. Cell proliferation was determined using the cell counting WST-8 kit (Dojindo technologies) following the manufacturer's instructions and using the formula: % survival rate=(Sample-Background)(Negative control-Background). Lapatinib was ground using a mortar and pestle and suspended in DMSO as previously described (Chen et al., Molecular cancer therapeutics 2012; 11:660-9). To determine statistical significance, the results were analyzed using one-way ANOVA using Prism 6.0.

[2] = test system: cervical carcinoma HeLa cells; assay: Cell proliferation assay (WST-8); assay type: cell-based, human; conditions: 10 nM kinase inhibitors, 10 μg/mL antibodies
Method: as §1, §2, §3

[3] = test system: osteosarcoma cell line U2OS; assay: Cell proliferation assay (WST-8); assay type: cell-based, human; conditions: 10 nM kinase inhibitors, 10 μg/mL antibodies
Method: as §1, §2, §3

[4] = test system: HER2 positive breast cancer; conditions: patients with HER2 positive breast cancer; cited from earlier work

Substance | sensitivity in proliferation assay [1] | sensitivity in proliferation assay [2] | sensitivity in proliferation assay ([2]; listed as Cetuximab) | sensitivity in proliferation assay [3] | patients initially responding [4]
cetuximab | resistant | resistant | pan-resistant | resistant | –
trastuzumab | – | – | – | – | Less than 35%

Reference: patent US12630632B2, “Bispecific HER2 and CD3 binding molecules” (Memorial Sloan Kettering Cancer Center, priority 2017, dated 2026)
